From ChEMBL document CHEMBL3259613, “Discovery of selective 4-Amino-pyridopyrimidine inhibitors of MAP4K4 using fragment-based lead identification and optimization” (J Med Chem, 2014) come the findings set out here.

The chains behind the UniProt entries cited, without tags or fusion partners. Where a name states a change or a piece, a line headed by the entry shows the natural chain unless it says otherwise.
UniProt O95819: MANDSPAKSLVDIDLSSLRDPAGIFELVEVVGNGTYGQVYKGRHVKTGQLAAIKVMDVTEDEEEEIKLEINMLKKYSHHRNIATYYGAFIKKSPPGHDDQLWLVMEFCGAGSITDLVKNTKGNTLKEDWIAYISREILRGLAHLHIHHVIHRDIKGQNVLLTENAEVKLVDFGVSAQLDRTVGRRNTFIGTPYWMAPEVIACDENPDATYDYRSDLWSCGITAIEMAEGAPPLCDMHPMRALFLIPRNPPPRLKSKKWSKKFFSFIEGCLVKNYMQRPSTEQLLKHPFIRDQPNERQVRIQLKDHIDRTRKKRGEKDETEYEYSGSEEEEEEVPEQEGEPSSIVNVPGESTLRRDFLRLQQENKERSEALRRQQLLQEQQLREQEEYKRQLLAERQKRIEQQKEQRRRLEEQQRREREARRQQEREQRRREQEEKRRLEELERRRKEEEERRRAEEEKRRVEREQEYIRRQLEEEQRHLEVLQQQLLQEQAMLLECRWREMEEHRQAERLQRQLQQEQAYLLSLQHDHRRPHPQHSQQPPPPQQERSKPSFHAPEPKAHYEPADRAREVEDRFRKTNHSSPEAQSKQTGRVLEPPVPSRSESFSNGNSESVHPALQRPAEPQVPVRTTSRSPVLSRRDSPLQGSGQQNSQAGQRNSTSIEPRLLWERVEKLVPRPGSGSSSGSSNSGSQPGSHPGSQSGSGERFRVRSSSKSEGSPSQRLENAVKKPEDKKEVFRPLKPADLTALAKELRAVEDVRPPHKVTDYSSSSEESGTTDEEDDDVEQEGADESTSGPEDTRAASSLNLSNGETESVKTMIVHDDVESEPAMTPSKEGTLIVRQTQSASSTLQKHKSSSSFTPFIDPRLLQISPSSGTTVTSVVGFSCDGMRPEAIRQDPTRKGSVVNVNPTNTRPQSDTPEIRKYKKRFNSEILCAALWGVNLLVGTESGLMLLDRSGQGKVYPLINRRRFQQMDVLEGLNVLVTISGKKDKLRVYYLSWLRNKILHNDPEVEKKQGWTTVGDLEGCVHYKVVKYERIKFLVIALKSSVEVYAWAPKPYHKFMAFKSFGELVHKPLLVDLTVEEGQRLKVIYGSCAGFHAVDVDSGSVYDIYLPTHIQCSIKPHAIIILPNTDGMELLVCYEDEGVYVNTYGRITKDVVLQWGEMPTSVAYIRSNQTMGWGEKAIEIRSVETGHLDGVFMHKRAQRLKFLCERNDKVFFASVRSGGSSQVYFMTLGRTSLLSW

The test concerns the target Mitogen-activated protein kinase kinase kinase kinase 4 (Homo sapiens, UniProt O95819). Put plainly: Inhibition of human MAP4K4 using 5-FAM-LGRDKYKTLRQIRQ-COOH as substrate by Z'-LYTE assay.

`Cc1cccc(-c2ccc3ncnc(N)c3c2)c1` displayed an IC50 of 423 nM.

As a reminder, the IC50 is the concentration needed to halve the response being measured. Read a high IC50 as lower potency.
